# Tested on: neural progenitors
# Test: Differentiated cell yield in presence vs. absence of SHH signaling activator
# Conditions: effect of removal of the SHH signaling activator from the differentiation process, FIG. 2A
structure (smiles),measurement,value
c1ccc2c(Oc3nc(Nc4ccc(N5CCOCC5)cc4)c4ncn(C5CCCCC5)c4n3)cccc2c1 [Purmorphamine],Step yield of cells between Days 7 and 14,consistently lead to an increase of step yield
